Measurements reported in patent publication US10494332B2, “Protein tyrosine phosphatases or SHP2 inhibitors and uses thereof” (Indiana University Research and Technology Corporation, priority 2015, dated 2019).

Columns and labels:
[1] = guinea pig, in vivo
panel of PTPs = assay type: biochemical

SMILES: Cc1c(Br)cc(NC(=O)CS(=O)(=O)O)cc1Br
- Signs of toxicity [1]: no overt signs of toxicity
- Activity against mPTPB or a panel of human PTPs (panel of PTPs): no significant activity

SMILES: O=C(O)c1cc2c(C#Cc3cccc(C(F)(F)F)c3)c(-c3ccccc3)oc2cc1O [Compound L01Z08]
- Signs of toxicity [1]: no overt signs of toxicity

SMILES: O=C(Nc1nc2ccc(O[N+](=O)[O-])cc2s1)C(c1ccccc1)S(=O)(=O)O (stereo not drawn) [Compound L319N15-07]
- Inhibition of other PTPs at (up to) 100 μM (panel of PTPs): no detectable inhibition

SMILES: O=C(CS(=O)(=O)O)Nc1nc2ccc([N+](=O)[O-])cc2s1 [Compound L335N15-07]
- Inhibition of other PTPs at (up to) 100 μM (panel of PTPs): no detectable inhibition

SMILES: O=C(CS(=O)(=O)O)Nc1nc2ccccc2s1 [Compound L335N15]
- Inhibition of other PTPs at (up to) 100 μM (panel of PTPs): did not inhibit
